The numbers were not newly measured in patent publication US10829649B2, “Methods and coatings for protecting surfaces from bio-fouling species” (priority 2018, dated 2020), which cites them from elsewhere.

For the series the following is noted: metal pyrithione salts; cited from earlier work.

With barium pyrithione, the water solubility entry was “about 77 mg per L”.
